Assay [1] concerns the target T1, B-SUMO (P1068) (yeast).
T1 chain: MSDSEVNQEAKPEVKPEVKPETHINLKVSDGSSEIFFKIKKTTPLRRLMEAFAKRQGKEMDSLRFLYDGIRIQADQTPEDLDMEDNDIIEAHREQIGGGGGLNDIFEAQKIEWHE
As to the kind of experiment: library selection; target listed for clone.

Assay [2] concerns the target SUMO-GFP fusion (P10126RDG-1). As to the kind of experiment: affinity chromatography from spiked E. coli lysate.
Assay [3] deals with T1, B-SUMO (P1068). Kind of assay: BLI, B-SUMO on streptavidin tips, 1:1 global fit.

4 molecules from patent US20260193328A1 (NECTAGEN, published 2026) can be followed below.

B1: SUMO-16-624F (designed binder)
chain: GSSHHHHHHNPSLIRSESWAYDTGNEANLLDGDDNTGVWYIYDSDEKSLAGEFIGLDLGKEIKLDGIRFVIGKNGGGSSDKWNKFKLEYSLDNESWTTIKEYDKTGAPAGKDVIEESFETPISAKYIRLTNLEYYHYLTFSEFAIVSD
For B1, in assay [1], the binding result is listed as “binds”.

B2: plate 37-624F (designed binder)
chain: HHHHHHYPSLIRSESWARPVGNEANLLDGDDNTGVWYHKKKSKISLAGEFIGLDLGKEIKLDGIRFVIGKNGGGSSDKWNKFKLEYSLDNESWTTIKEYDKTGAPAGKDVIEESFETPISAKYIRLTNLEVNSPLTFSEFAIVSD
With B2, the binding result in assay [1] is “binds”.

B3: SMT3-A1 (designed binder)
chain: NPSLIRSESWEDIKGNEANLLDGDDNTGVWYFNEVFYESLAGEFIGLDLGKEIKLDGIRFVIGKNGGGSSDKWNKFKLEYSLDNESWTTIKEYDKTGAPAGKDVIEESFETPISAKYIRLTNLEDKILFLTFSEFAIVSD
The Kd is the free concentration of one partner at which half of the binding sites on the other are occupied at equilibrium, for simple one-to-one binding. A lower Kd goes with tighter binding. With B3, the binding result in assay [2] is given as “binds”. Also, the affinity in assay [3], expressed as Kd, was 163 nM.

B4: P2808 (designed binder)
chain: GSSHHHHHHDPTLIHTPGWLVIPGSEADLLDGDDSTGVEYIIVEEFTSLAGEFIGLDLGEVVEVGGIHFVIGADGGGSSDKWTRFRLEYSLDGESWTTIREYDHTGAPAGQDVIDEDFETPISAQYIRLTNLEYNFIDLTFSEFAIVSDELEDYKDDDDKG
The molecule B4 yielded a dissociation constant (Kd) in assay [3] of 7 nM.
